Laboratory results from PubChem BioAssay AID651710 (Broad Institute, 2012).
The list shows a part of the results, in another mix than the full data. Active and inactive are the calls of the source.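 How the source made its calls: active means every replicate showing at least 50% inhibition; inconclusive means mean inhibition at least 50% but not in every replicate; inactive means the rest.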

By UniProt entry, the sequences of proteins in these tests, tags left out.
UniProt P43351, whole entry: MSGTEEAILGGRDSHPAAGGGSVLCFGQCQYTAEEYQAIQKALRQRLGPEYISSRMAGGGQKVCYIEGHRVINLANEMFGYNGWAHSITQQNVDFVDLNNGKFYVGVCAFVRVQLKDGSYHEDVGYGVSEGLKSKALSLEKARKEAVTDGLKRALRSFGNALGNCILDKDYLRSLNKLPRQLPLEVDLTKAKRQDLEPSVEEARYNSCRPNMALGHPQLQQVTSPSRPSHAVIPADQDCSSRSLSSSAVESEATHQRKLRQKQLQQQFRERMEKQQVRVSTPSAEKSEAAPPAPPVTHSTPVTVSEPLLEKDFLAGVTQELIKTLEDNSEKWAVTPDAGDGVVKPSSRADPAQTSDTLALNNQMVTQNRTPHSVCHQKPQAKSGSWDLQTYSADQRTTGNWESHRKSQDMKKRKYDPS

Molecular target: DNA repair protein RAD52 homolog (Homo sapiens) (UniProt P43351)
Assay: RAD52 DNA annealing inhibitors, primary screen, biochemical, FRET, single point, set 2 (AID 651710)
Conditions: recombinant RAD52 DNA annealing, FRET fluorescence; at 18.7 µM; stronger effect = higher value

Compound	inhibition
CN1CCC(Nc2ccc(F)c(Cl)c2)CC1	inactive: -5.17%
O=c1[nH]c2ccccc2n1C1CCN(C(c2cc3ccccc3o2)c2nnnn2C2CCCC2)CC1 (centres undefined)	inactive: -2.2%
CCCOc1ccc(C(=O)NCC2(N(C)C)CCCCC2)cc1	inactive: -11.2%
NN(c1ccccc1)C1CCN(CCc2ccccc2)CC1	inactive: -16.6%
O=C(O)C1(Nc2ccccc2)CCN(Cc2ccccc2)CC1	inactive: -9.14%
CC(C)(C)OC(=O)N1CCC(Nc2ccccc2)CC1	inactive: -0.039%
COc1cccc(C(=O)N(c2cc(C)cc(C)c2)C2CCN(C(=O)OC(C)(C)C)CC2)c1	inactive: -4.54%
COc1cc(OC)cc(C(=O)NCC2(N3CCOCC3)CCCCC2)c1	inactive: -27.9%
COc1cccc(C(c2nnnn2C2CCCC2)N2CCC(n3c(=O)[nH]c4ccccc43)CC2)c1OC (centres undefined)	inactive: -16%
CN1CCC(Nc2ccc(Cl)cc2)CC1	inactive: 12.8%
COc1cc(OC)cc(C(=O)NCC2(N3CCCCC3)CCCCC2)c1	inactive: -11.9%
O=c1[nH]c2ccccc2n1C1CCN(C(c2ccnc3ccccc23)c2nnnn2C2CCCCC2)CC1 (centres undefined)	inactive: -22.4%
CCC(c1nnnn1C1CCCCC1)N1CCC(n2c(=O)[nH]c3ccccc32)CC1 (centres undefined)	inactive: -11.1%
COc1cccc(C(c2nnnn2C2CCCCC2)N2CCC(n3c(=O)[nH]c4ccccc43)CC2)c1OC (centres undefined)	inactive: -16.7%
CC(=O)N(c1ccccc1)C1CCNCC1	inactive: -4.07%
Cc1ccc(NC2(C#N)CCN(Cc3ccccc3)CC2)cc1	inactive: 2.54%
Fc1ccccc1NC1CCN(Cc2ccccc2)CC1	inactive: 5.85%
Cc1ccc(C(=O)NCC2(N3CCCCC3)CCCCC2)o1	inactive: -12.9%
COc1ccc(C(c2nnnn2C2CCCCC2)N2CCC(n3c(=O)[nH]c4ccccc43)CC2)cc1 (centres undefined)	inactive: 5.31%
CC(C)(C)n1nnnc1C(c1ccnc2ccccc12)N1CCC(n2c(=O)[nH]c3ccccc32)CC1 (centres undefined)	inactive: -18.5%

Compound	inhibition
Cc1ccccc1NC1(C#N)CCN(Cc2ccccc2)CC1	inactive: -5.39%
CN(C)c1ccc(C(=O)NCC2(N3CCCCC3)CCCCC2)cc1	inactive: -7.08%
Cn1c(=O)[nH]cc(N(CCCl)CCCl)c1=O	inactive: -8.55%
O=C(NCC1(N2CCCCC2)CCCCC1)c1ccco1	inactive: -86.7%
CC(C)(C)OC(=O)N1CCC(N(C(=O)c2ccccc2)c2ccc(Cl)cc2)CC1	inactive: 3.65%
N#Cc1ccc(C(=O)NCC2(N3CCCCC3)CCCCC2)cc1	inactive: -16.7%
Cc1cc(N(CCCl)CCCl)ccc1C=O	inactive: -11.3%
CCCN1CCC(Nc2cc(OC)cc(OC)c2)CC1	inactive: -36.6%
O=c1[nH]c2ccccc2n1C1CCN(C(c2ccccc2)c2nnnn2C2CCCC2)CC1 (centres undefined)	inactive: -16.6%
C/C(N)=N\P(=O)(Oc1ccccc1)Oc1ccccc1	inactive: -8.66%
CN(C)C1(CNC(=O)c2cccc(C#N)c2)CCCCC1	inactive: -10.2%
CC(C)(C)n1nnnc1C(c1cccc2ccccc12)N1CCC(n2c(=O)[nH]c3ccccc32)CC1 (centres undefined)	inactive: -6.39%
O=C(NCC1(N2CCOCC2)CCCCC1)c1cc(Br)ccc1Cl	inactive: -22.5%
COc1cc(C(=O)NCC2(N3CCOCC3)CCCCC2)cc(OC)c1C	inactive: -0.019%
CCCCn1nnnc1C(c1ccccc1)N1CCC(n2c(=O)[nH]c3ccccc32)CC1 (centres undefined)	inactive: -3.76%
O=c1[nH]c2ccccc2n1C1CCN(C(c2ccnc3ccccc23)c2nnnn2C2CCCC2)CC1 (centres undefined)	inactive: -24.7%
COc1ccc(C(=O)NCC2(N3CCOCC3)CCCCC2)cc1OC	inactive: -18.5%
O=c1[nH]c2ccccc2n1C1CCN(C(c2cccs2)c2nnnn2C2CCCCC2)CC1 (centres undefined)	inactive: -2.29%
CCOC(=O)N1CCC(Nc2ccc(C)cc2)CC1	inactive: -3.18%
COc1cccc(C(c2nnnn2C(C)(C)C)N2CCC(n3c(=O)[nH]c4ccccc43)CC2)c1OC (centres undefined)	inactive: -16.6%

Compound	inhibition
CCCCn1nnnc1C(c1cccc(OC)c1OC)N1CCC(n2c(=O)[nH]c3ccccc32)CC1 (centres undefined)	inactive: 4.31%
O=c1[nH]c2ccccc2n1C1CCN(C(c2cccs2)c2nnnn2C2CCCC2)CC1 (centres undefined)	inactive: -10.4%
CN(C)c1cccc(C(=O)NCC2(N3CCCCC3)CCCCC2)c1	inactive: -4.11%
COc1ccc(CN(CCCl)CCCl)cc1Cl	inactive: 0.137%
CC(C)c1ccc(NC2CCN(C(=O)OC(C)(C)C)CC2)cc1	inactive: -4.58%
CCCCn1nnnc1C(c1ccnc2ccccc12)N1CCC(n2c(=O)[nH]c3ccccc32)CC1 (centres undefined)	inactive: -9.02%
O=C(NCC1(N2CCOCC2)CCCCC1)c1cc(F)c(F)cc1Cl	inactive: -24%
CCC(c1nnnn1C(C)(C)C)N1CCC(n2c(=O)[nH]c3ccccc32)CC1 (centres undefined)	inactive: -3.17%
COc1cc(OC)c(C(=O)NCC2(N(C)C)CCCCC2)cc1OC	inactive: 2.24%
CN1CCC(Nc2cccc(F)c2)CC1	inactive: -11.1%
O=C(NCC1(N2CCCCC2)CCCCC1)c1cncc(Br)c1	inactive: -9.41%
CCCOc1ccc(C(=O)NCC2(N(C)C)CCCCC2)cc1OC	inactive: -6.65%
Cc1ccc(C(=O)NCC2(N(C)C)CCCCC2)o1	inactive: 15.2%
COc1ccc(C(c2nnnn2C2CCCC2)N2CCC(n3c(=O)[nH]c4ccccc43)CC2)cc1 (centres undefined)	inactive: 10.2%
O=C(NCC1(N2CCCCC2)CCCCC1)c1ccc(OC(F)F)cc1	inactive: -55.2%
CC(C)(C)n1nnnc1C(c1ccccc1OC(F)(F)F)N1CCC(n2c(=O)[nH]c3ccccc32)CC1 (centres undefined)	inactive: -17.3%
O=C(NCC1(N2CCCCC2)CCCCC1)c1cccc([N+](=O)[O-])c1	inactive: -4.3%
CSc1ccc(C(=O)NCC2(N3CCOCC3)CCCCC2)cc1	inactive: -24.1%
O=c1[nH]c2ccccc2n1C1CCN(C(c2ccccc2OC(F)(F)F)c2nnnn2C2CCCC2)CC1 (centres undefined)	inactive: -10.1%
